Publication PMC3251870 (British Journal of Cancer, 2011)
Read-outs that look alike come from different tables or passages of the source.

Amino acid sequences for entries named in this document (tags omitted).
UniProt Q13547, whole entry, species assumed: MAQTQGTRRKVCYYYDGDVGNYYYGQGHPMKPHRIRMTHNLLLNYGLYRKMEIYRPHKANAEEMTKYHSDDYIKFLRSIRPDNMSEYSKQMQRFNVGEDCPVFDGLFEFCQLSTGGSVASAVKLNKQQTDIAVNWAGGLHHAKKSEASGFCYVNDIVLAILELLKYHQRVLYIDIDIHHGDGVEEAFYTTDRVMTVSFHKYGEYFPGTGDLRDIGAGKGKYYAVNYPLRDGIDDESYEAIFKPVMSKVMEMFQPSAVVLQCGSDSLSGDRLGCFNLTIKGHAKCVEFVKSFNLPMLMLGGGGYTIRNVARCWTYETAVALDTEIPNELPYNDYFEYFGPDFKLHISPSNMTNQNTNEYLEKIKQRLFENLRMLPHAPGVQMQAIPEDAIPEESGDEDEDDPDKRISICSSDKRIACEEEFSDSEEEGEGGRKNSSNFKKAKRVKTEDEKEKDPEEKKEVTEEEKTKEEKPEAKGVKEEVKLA

Columns and labels:
[1] = target: T1, purified recombinant HDAC8 (Homo sapiens, UniProt Q9BY41)
T1 sequence (Q9BY41 1-377): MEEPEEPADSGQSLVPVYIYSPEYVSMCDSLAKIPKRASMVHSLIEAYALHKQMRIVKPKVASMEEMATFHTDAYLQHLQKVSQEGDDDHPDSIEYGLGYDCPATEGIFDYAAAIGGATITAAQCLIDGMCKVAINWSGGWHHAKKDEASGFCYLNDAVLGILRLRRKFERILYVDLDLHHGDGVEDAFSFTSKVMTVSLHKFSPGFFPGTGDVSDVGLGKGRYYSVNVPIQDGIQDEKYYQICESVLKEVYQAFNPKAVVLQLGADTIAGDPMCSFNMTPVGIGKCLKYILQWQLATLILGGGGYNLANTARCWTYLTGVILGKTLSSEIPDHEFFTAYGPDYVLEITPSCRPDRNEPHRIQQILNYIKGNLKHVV

[2] = target: purified recombinant HDAC1 (Homo sapiens, UniProt Q13547); conditions: 400 nM

CC(/C=C/C(=O)NO)=C\[C@@H](C)C(=O)c1ccc(N(C)C)cc1 [TSA, trichostatin A] was tested, and the “inhibition of HDAC8 activity” value ([1]; 400 nM) was “only partly inhibited”, the “inhibition of HDAC8 activity” value ([1]; 5 μM) was “fully eliminated its activity” and the “inhibition of HDAC1 activity” value [2] was “fully inhibited”.
